Among the data in US10214512B2, “Factor XIA inhibitors” (MERCK SHARP & DOHME CORP., priority 2015, dated 2019) are Ki values, retold here.

The chains behind the UniProt entries cited, without tags or fusion partners. Residues count along the entry.
UniProt P03951, 19-387 partner: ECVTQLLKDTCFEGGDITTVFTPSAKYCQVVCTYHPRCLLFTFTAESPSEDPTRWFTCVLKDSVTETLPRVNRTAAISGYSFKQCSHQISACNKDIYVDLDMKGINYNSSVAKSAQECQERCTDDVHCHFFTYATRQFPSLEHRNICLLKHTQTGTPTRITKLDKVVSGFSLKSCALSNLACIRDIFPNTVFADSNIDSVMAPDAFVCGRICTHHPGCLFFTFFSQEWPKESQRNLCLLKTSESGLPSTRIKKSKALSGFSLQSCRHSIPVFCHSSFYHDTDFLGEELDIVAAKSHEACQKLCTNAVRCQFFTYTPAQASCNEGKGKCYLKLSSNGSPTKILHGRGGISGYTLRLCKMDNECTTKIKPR
UniProt P03951, 388-625: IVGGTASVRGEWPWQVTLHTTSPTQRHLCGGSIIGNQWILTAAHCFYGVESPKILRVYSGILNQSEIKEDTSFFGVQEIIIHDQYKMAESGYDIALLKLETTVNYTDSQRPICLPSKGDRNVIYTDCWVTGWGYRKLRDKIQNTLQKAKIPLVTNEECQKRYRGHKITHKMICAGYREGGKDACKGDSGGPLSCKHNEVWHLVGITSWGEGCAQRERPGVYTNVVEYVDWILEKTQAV

The target of the test is purified human Factor XIa (Homo sapiens (Human), UniProt P03951). Nature of the test: Factor XIa Assay. The test is classed as biochemical. The settings on record: purified human Factor XIa 40 pM; substrate Z-Gly-Pro-Arg-AFC 100 μM; 50 mM HEPES pH 7.4; read-out: Human FXIa Ki. Here is the method: The effectiveness of a compound of the present invention as an inhibitor of Coagulation Factor XIa can be determined using a relevant purified serine protease, and an appropriate synthetic substrate. The rate of hydrolysis of the chromogenic or fluorogenic substrate by the relevant serine protease was measured both in the absence and presence of compounds of the present invention. Assays were conducted at rt or at 37° C. […] A decrease in the rate of fluorescence change in the presence of inhibitor is indicative of enzyme inhibition. Such methods are known to one skilled in the art. The results of this assay are expressed as the inhibitory constant, Ki.
Factor XIa determinations were made in 50 mM HEPES buffer at pH 7.4 containing 150 mM NaCl, 5 mM CaCl2, and 0.1% PEG 8000 (polyethylene glycol; JT Baker or Fisher Scientific). Determinations were made using purified human Factor XIa at a final concentration of 40 pM (Sekisui Diagnostics) and he synthetic substrate, Z-Gly-Pro-Arg-AFC, TFA salt (Sigma #C0980) at a concentration of 100 μM.
Times required to achieve equilibration between enzyme and inhibitor were determined in control experiments. Initial velocities of product formation in the absence (Vo) or presence of inhibitor (Vi) were measured. Assuming competitive inhibition, and that unity is negligible compared Km/[S], [I]/e, and [I]/e (where [S], [I], and e respectively represent the total concentrations, of substrate, inhibitor and enzyme), the equilibrium constant (Ki) for dissociation of the inhibitor from the enzyme can be obtained from the dependence of Vo/Vi on [I] shown in the following equation.
By Ki is commonly meant a dissociation constant, usually derived from enzyme kinetics or from competition with a known ligand. Regarding `COC(=O)Nc1ccc2c(c1)NC(=O)[C@H](C)CCC[C@@H](c1ccc(-c3cc(F)ccc3OC(F)(F)F)c[n+]1[O-])c1nc-2c(C)[nH]1` (single isomer, unassigned) [Example 149-d], the Ki stood at 60.1 nM.
The figure for `COC(=O)Nc1ccc2c(c1)NC(=O)[C@@H](C)CCC[C@H](c1ccc(-c3c(OC(F)F)ccc(F)c3F)c[n+]1[O-])c1nc-2c(C)[nH]1` (single isomer, unassigned) [Example 150-c] is 0.37 nM.
The result for `C[C@@H]1CCC[C@@H](c2ccc(-c3cc(Cl)ccc3-n3cc(C(F)(F)F)cn3)c[n+]2[O-])c2cccc(c2)-c2c(cnn2C(F)F)NC1=O` (single isomer, unassigned) [Example 168-b] reads greater than 875 nM.
The result for `COC(=O)Nc1ccc2c(c1)NC(=O)C(C)CCCC(c1ccc(-c3c(F)ccc(Cl)c3F)cn1)c1cc-2ccn1` (single isomer, unassigned) [Example 95-a, Methyl (9-(5-(3-chloro-2,6-difluorophenyl)pyridin-2-yl)-5-methyl-4-oxo-3-aza-1(4,2)-pyridina-2(1,2)-benzenacyclononaphane-2^4-yl)carbamate] reads 2.7 nM; that for `COC(=O)Nc1ccc2c(c1)NC(=O)[C@@H](C)CCC[C@@H](c1ccc(-c3c(F)cccc3F)c[n+]1[O-])c1nc-2c(C2CC2)[nH]1` (single isomer, unassigned) [Example 145-b], 45.1 nM.
Regarding `COC(=O)Nc1ccc2c(c1)NC(=O)[C@@H](C)CCC[C@H](c1ccc(-c3cc(Cl)ccc3OC(F)(F)F)c[n+]1[O-])c1cccc-2c1` (single isomer, unassigned) [Example 77-b], the Ki turned out to be 2.31 nM.
The figure for `COC(=O)Nc1ccc2c(c1)NC(=O)CCCC[C@H](c1ccc(-c3cc(Cl)ccc3-n3cc(C4CC4)nn3)c[n+]1[O-])c1cccc-2c1` (single isomer, unassigned) [Example 38] is 0.11 nM; for `COC(=O)Nc1ccc2c(c1)NC(=O)CCCC[C@H](c1ccc(-c3c(OC(F)F)ccc(F)c3F)c[n+]1[O-])c1nc-2c(C)[nH]1` (single isomer, unassigned) [Example 130] it is 0.15 nM.
Consider `COC(=O)Nc1ccc2c(c1)NC(=O)CCCC[C@H](c1ccc(-c3cc(Cl)ccc3-c3cnco3)c[n+]1[O-])c1cccc-2c1` (single isomer, unassigned) [Example 35], for which the Ki is 0.24 nM.
Turning to `COC(=O)Nc1ccc2c(c1)NC(=O)C(C)CCCC(c1ccc(-c3c(F)ccc(Cl)c3F)c[n+]1[O-])c1nc-2c[nH]1` (single isomer, unassigned) [Example 114-b, (Z)-5-(3-chloro-2,6-difluorophenyl)-2-(2^4-((methoxycarbonyl)amino)-5-methyl-4-oxo-1^1H-3-aza-1(4,2)-imidazola-2(1,2) -benzenacyclononaphane-9-yl)pyridine 1-oxide], the Ki was found to be 16.5 nM.
Take `COC(=O)Nc1ccc2c(c1)NC(=O)C(C)CCCC(c1ccc(-c3c(F)ccc(Cl)c3F)c[n+]1[O-])c1nc-2c[nH]1` (single isomer, unassigned) [Example 114-d, (Z)-5-(3-chloro-2,6-difluorophenyl)-2-(2^4-((methoxycarbonyl)amino)-5-methyl-4-oxo-1^1H-3-aza-1(4,2)-imidazola-2(1,2) -benzenacyclononaphane-9-yl)pyridine 1-oxide]: the Ki was 9.96 nM.
On to `COC(=O)Nc1ccc2c(c1)NC(=O)CCCCC(c1ccc(-c3cc(Cl)ccc3-n3cc(C(=O)O)nn3)cn1)c1cccc-2c1` (single isomer, unassigned) [Example 92-a, 1-(4-chloro-2-(6-(2^4-((methoxycarbonyl)amino)-4-oxo-3-aza-1(1,3),2(1,2) -dinenzenacyclononaphane-9-yl)pyridin-3-yl)phenyl)-1H-1,2,3-triazole-4-carboxylic acid], for which the Ki amounted to 0.44 nM.
The result for `COC(=O)Nc1ccc2c(c1)NC(=O)CC[C@H](C)C[C@@H](c1ccc(-c3c(F)ccc(Cl)c3F)c[n+]1[O-])c1nc-2c(C)[nH]1` (single isomer, unassigned) [Example 151-d] reads greater than 875 nM; that for `COC(=O)Nc1ccc2c(c1)NC(=O)CCCC[C@H](c1ccc(-c3c(F)cccc3OC(F)F)c[n+]1[O-])c1nc-2c(C)[nH]1` (single isomer, unassigned) [Example 126], 0.14 nM; that for `COC(=O)Nc1ccc2c(c1)NC(=O)[C@@H](C)CCC[C@@H](c1ccc(-c3c(F)ccc(Cl)c3F)c[n+]1[O-])c1cc-2ncc1F` (single isomer, unassigned) [Example 76-c], 64 nM.
The figure for `CCc1[nH]c2nc1-c1ccc(NC(=O)OC)cc1NC(=O)[C@H](C)CCC[C@H]2c1ccc(-c2c(F)cccc2OC(F)F)c[n+]1[O-]` (single isomer, unassigned) [Example 146-b] is 12.1 nM; for `COC(=O)Nc1ccc2c(c1)NC(=O)C(C)CCCC(c1ccc(-c3c(F)ccc(Cl)c3F)cn1)c1cc-2ccn1` (single isomer, unassigned) [Example 95-c, Methyl (9-(5-(3-chloro-2,6-difluorophenyl)pyridin-2-yl)-5-methyl-4-oxo-3-aza-1(4,2)-pyridina-2(1,2)-benzenacyclononaphane-2^4-yl)carbamate] it is 574 nM.
Consider `COC(=O)Nc1ccc2c(c1)NC(=O)[C@@H](C)CCC[C@H](c1ccc(-c3c(F)ccc(Cl)c3F)c[n+]1[O-])c1cc-2ncc1F` (single isomer, unassigned) [Example 76-b], for which the Ki worked out at 1.37 nM.
In the case of `COC(=O)Nc1ccc2c(c1)NC(=O)C(C)CCCC(c1cc(OC)c(-c3c(F)ccc(Cl)c3F)c[n+]1[O-])c1cccc-2c1` (single isomer, unassigned) [Example 88-d, 5-(3-Chloro-2,6-difluorophenyl)-4-methoxy-2-(2^4-((methoxycarbonyl)amino)-5-methyl-4-oxo-3-aza-1(1,3),2(1,2) -dibenzenacyclononaphane-9-yl)pyridine 1-oxide], the Ki is 0.57 nM.
Consider `CCc1[nH]c2nc1-c1ccc(NC(=O)OC)cc1NC(=O)[C@@H](C)CCC[C@@H]2c1ccc(-c2c(F)cccc2OC(F)F)c[n+]1[O-]` (single isomer, unassigned) [Example 146-c], for which the inhibition constant (Ki) was 0.29 nM.
The result for `CCc1[nH]c2nc1-c1ccc(NC(=O)OC)cc1NC(=O)[C@@H](C)CCC[C@H]2c1ccc(-c2c(F)cccc2OC(F)F)c[n+]1[O-]` (single isomer, unassigned) [Example 146-d] reads 73.9 nM.
